Data reported in US11065277B2, “Method of ameliorating side effects of sickle cell disease treatments” (ALBERT EINSTEIN COLLEGE OF MEDICINE, priority 2015, dated 2021).
Entries after “also recorded” stand apart in the source; their conditions may differ.

How the values were obtained:
Type in all cases: in vivo, mouse
WT animals [1] = test: Whole brain cerebral blood flow (CBF) before and after top-load; conditions: post injection vs baseline, 10% top-load
Source text: FIG. 3: Whole Brain CBF before (baseline, BL) and after (PI, post injection) 10% top-load with EAF-[…]-Alb. CBF increased in WT animals, but decreased in SS-Antilles and BERK animals. * indicated p<0.001 W.R.T BL. […] This decrease in CBF is also associated with a decrease in cerebral oxygen delivery, resulting in post-drug administration increases in cerebral hypoxia. Using BOLD MRI imaging (which is sensitive to the tissue concentration of deoxy-Hb) the sufficiency of oxygenation of cerebral tissues was measured by assessing the change in deoxy-Hb which occurs with administration of a short inhalation bolus of 100% O2. The measure, termed BOLD-RHO (FIG. 4) indicates adequacy of oxygen delivery to the tissues.

WT animals [2] = test: BOLD-RHO (BOLD MRI response to hyperoxia, gray matter); conditions: post injection vs baseline
Experimental: (§1) FIG. 4: BOLD-RHO (gray matter) Response to Hyperoxia in WT and SCD Models. BL=baseline, PI=post injection. […] This decrease in CBF is also associated with a decrease in cerebral oxygen delivery, resulting in post-drug administration increases in cerebral hypoxia. Using BOLD MRI imaging (which is sensitive to the tissue concentration of deoxy-Hb) the sufficiency of oxygenation of cerebral tissues was measured by assessing the change in deoxy-Hb which occurs with administration of a short inhalation bolus of 100% O2. The measure, termed BOLD-RHO (FIG. 4) indicates adequacy of oxygen delivery to the tissues.

BERK mice [3] = test: Intravital microscopy of the systemic circulation (shear rate, volumetric flow rate, leukocyte adhesion, sickling); conditions: for Volumetric flow rate / systemic (peripheral) tissue blood flow: BERK / sickle transgenic mice
SS-Antilles animals = test: Whole brain cerebral blood flow (CBF) before and after top-load; conditions: post injection vs baseline, 10% top-load
Source text: FIG. 3: Whole Brain CBF before (baseline, BL) and after (PI, post injection) 10% top-load with EAF-[…]-Alb. CBF increased in WT animals, but decreased in SS-Antilles and BERK animals. * indicated p<0.001 W.R.T BL.

BERK mice [4] = test: Cerebral blood flow (CBF) after treatment; conditions: post injection vs baseline, 10% top-load
BERK mice [5] = test: BOLD-RHO (BOLD MRI response to hyperoxia, gray matter); conditions: post injection vs baseline, 10% top-load
Source text: as §1, with “injection. […] FIG. 6: BOLD-RHO Response in BERK mice at different times following administration of EAF-PEG-Hb.” for “injection.”, “tissues. […] However, unlike EAF-PEG-Alb, the substitution of Alb with Hb in the molecule imparts increased oxygen carrying/delivering capacity to the blood, resulting in reduced likelihood for cerebral sickling and reduced cerebral oxidative stress to the brain. […] This effect can be achieved by combination of any therapy with EAF-PEG-Hb.” for “tissues.”

Substance: EAF-P5K6-Alb: extension arm facilitated albumin molecule having 6 molecules of 5,000 mw polyethylene glycol (PEG) attached thereto
- Whole Brain CBF (WT animals [1]): increased
- Whole Brain CBF (WT animals [1]; listed as EAF-PEG-Alb): substantially increases
- BOLD-RHO (hypoxic stress, deoxyHb response to hyperoxia) (WT animals [2]): Hypoxic stress decreases
- Volumetric flow rate / systemic (peripheral) tissue blood flow (BERK mice [3]; after 10% topload): increased
- Volumetric flow rate / systemic (peripheral) tissue blood flow (BERK mice [3]; after 10% topload, listed as EAF-PEG-Alb): large improvement; also recorded: increase vessel flow
- Shear Rate (BERK mice [3]; BERK mice, after 10% topload): increased
- Leukocyte adhesion in systemic post capillary venules (BERK mice [3]; sickle transgenic animals, systemic circulation, listed as EAF-PEG-Alb): significantly reduces
- Sickling (BERK mice [3]; systemic circulation): reduces
- Whole Brain CBF (SS-Antilles animals): decreased
- CBF (BERK mice [4]): decreased
- CBF (BERK mice [4]; listed as EAF-PEG-Alb): drop in CBF; also recorded: significant decrease
- BOLD-RHO (hypoxic stress, brain deoxy-Hb response to hyperoxia) (BERK mice [5]): increased hypoxic stress
